Reference: publication PMC7614775 (Nature chemical biology, 2022)

Sequences of proteins named here, by UniProt entry; tags and fusion partners are left off.
UniProt P30519, whole entry: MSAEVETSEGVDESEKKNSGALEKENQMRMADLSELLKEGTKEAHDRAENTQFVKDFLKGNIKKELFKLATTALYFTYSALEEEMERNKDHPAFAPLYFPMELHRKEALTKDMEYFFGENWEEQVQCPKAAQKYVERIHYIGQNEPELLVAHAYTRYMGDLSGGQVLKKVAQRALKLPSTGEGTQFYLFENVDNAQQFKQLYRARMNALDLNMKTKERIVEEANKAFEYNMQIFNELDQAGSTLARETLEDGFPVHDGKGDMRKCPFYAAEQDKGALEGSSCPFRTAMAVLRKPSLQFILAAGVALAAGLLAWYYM

Biological target: HMOX2_C282 (Homo sapiens, UniProt P30519)
Assay: Untargeted cysteine MS-ABPP, human PBMCs treated in situ
Conditions: 1 µM

%Engagement: 92%
SMILES: CS(=O)(=O)N1CC[C@H](C#CC(=O)N2CCC[C@@H](c3ccc(Cl)c(Cl)c3)C2)C1 [VVD-118313]
